The target in the assay is human orexin-2 receptor (Homo sapiens (Human), UniProt O43614). Put plainly: Human orexin 2 receptor radioligand binding ([3H]-EMPA competition).
[1] abbreviates: read-out: OR 2 Ki, HEK293 cells stably expressing human orexin-2 receptor, [3H]-EMPA 5 nM final, apparent Ki=IC50/(1+C/Kd), Kd=2 nM.

The chains behind the UniProt entries cited, without tags or fusion partners.
UniProt O43614, whole entry: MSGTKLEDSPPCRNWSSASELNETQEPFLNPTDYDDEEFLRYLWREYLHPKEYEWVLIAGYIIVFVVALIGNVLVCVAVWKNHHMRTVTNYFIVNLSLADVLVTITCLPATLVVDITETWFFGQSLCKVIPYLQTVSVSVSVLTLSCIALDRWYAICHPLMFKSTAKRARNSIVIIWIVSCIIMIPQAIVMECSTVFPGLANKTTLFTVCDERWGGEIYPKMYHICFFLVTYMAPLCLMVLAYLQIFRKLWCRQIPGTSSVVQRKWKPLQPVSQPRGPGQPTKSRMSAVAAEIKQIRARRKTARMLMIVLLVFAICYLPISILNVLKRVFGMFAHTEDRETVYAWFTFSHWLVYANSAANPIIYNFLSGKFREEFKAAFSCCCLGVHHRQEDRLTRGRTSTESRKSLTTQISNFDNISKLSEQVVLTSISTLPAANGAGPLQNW

Read-outs that look alike come from different tables or passages of the source.

Turning to `Cc1cc(C)nc(N2CC3CN(C(=O)c4cc(I)ccc4-n4nccn4)CC3C2)n1` (stereo not shown) [Example 105, 2-(4,6-Dimethylpyrimidin-2-yl)-5-{[5-iodo-2-(2H-1,2,3-triazol-2-yl)phenyl]carbonyl}octahydropyrrolo[3,4-c]pyrrole], the Ki under setting [1] was 0.02 µM.
Consider `Cc1cc(C)nc(N2CC3CN(C(=O)c4ccc(F)cc4-n4nccn4)CC3C2)n1` (stereo not shown) [Example 118, 2-(4,6-Dimethylpyrimidin-2-yl)-5-{[4-fluoro-2-(2H-1,2,3-triazol-2-yl)phenyl]carbonyl}octahydropyrrolo[3,4-c]pyrrole], for which the Ki (read-out: OR 2 Ki) stood at 0.019 µM.
Take `Cc1cc(C)nc(N2CC3CN(C(=O)c4cccnc4-n4nccn4)CC3C2)n1` (stereo not shown) [Example 238, (2-(2H-1,2,3-Triazol-2-yl)pyridin-3-yl)(5-(4,6-dimethylpyrimidin-2-yl)hexahydropyrrolo[3,4-c]pyrrol-2(1H)-yl)methanone]: the Ki under setting [1] was 0.243 µM.
Regarding `Cc1nc(N2CC3CN(C(=O)c4cccnc4-c4ccn[nH]4)CC3C2)nc(C)c1C` (stereo not shown) [Example 251, (2-(1H-Pyrazol-5-yl)pyridin-3-yl)(5-(4,5,6-trimethylpyrimidin-2-yl)hexahydropyrrolo[3,4-c]pyrrol-2(1H)-yl)methanone], the Ki under setting [1] worked out at 0.025 µM.
In the case of `COc1cc(OC)nc(N2CC3CN(C(=O)c4c(F)cccc4-n4nccn4)CC3C2)n1` (stereo not shown) [Example 258, (5-(4,6-Dimethoxypyrimidin-2-yl)hexahydropyrrolo[3,4-c]pyrrol-2(1H)-yl)(2-fluoro-6-(2H-1,2,3-triazol-2-yl)phenyl)methanone], the Ki under setting [1] worked out at 0.046 µM.
Still for that read-out and setting: for `Cc1cc(C)nc(N2CC3CN(C(=O)c4c(C)cccc4-n4nccn4)CC3C2)n1` (stereo not shown) [Example 259, (5-(4,6-Dimethylpyrimidin-2-yl)hexahydropyrrolo[3,4-c]pyrrol-2(1H)-yl)(2-methyl-6-(2H-1,2,3-triazol-2-yl)phenyl)methanone] the value was 0.008 µM; for `Cc1cc(C)nc(N2CC3CN(C(=O)c4cccc(C)c4-n4nccn4)CC3C2)n1` (stereo not shown) [Example 260, (5-(4,6-Dimethylpyrimidin-2-yl)hexahydropyrrolo[3,4-c]pyrrol-2(1H)-yl)(3-methyl-2-(2H-1,2,3-triazol-2-yl)phenyl)methanone], 0.09 µM; for `O=C(c1c(F)cccc1-n1nccn1)N1CC2CN(c3ncc([N+](=O)[O-])cn3)CC2C1` (stereo not shown) [Example 261, (2-Fluoro-6-(2H-1,2,3-triazol-2-yl)phenyl)(5-(5-nitropyrimidin-2-yl)hexahydropyrrolo[3,4-c]pyrrol-2(1H)-yl)methanone], 0.477 µM.
As for `Cc1cc(C)nc(N2CC3CN(C(=O)c4ccc(C)nc4-n4nccn4)CC3C2)n1` (stereo not shown) [Example 275, [5-(4,6-Dimethyl-pyrimidin-2-yl)-hexahydro-pyrrolo[3,4-c]pyrrol-2-yl]-(6-methyl-2-[1,2,3]triazol-2-yl-pyridin-3-yl)-methanone], the Ki under setting [1] came to 0.487 µM.
On to `O=C(c1c(F)cccc1-n1nccn1)N1CC2CN(c3nc(C(F)(F)F)cc(C(F)(F)F)n3)CC2C1` (stereo not shown) [Example 280, 2-[4,6-Bis(trifluoromethyl)pyrimidin-2-yl]-5-{[2-fluoro-6-(2H-1,2,3-triazol-2-yl)phenyl]carbonyl}octahydropyrrolo[3,4-c]pyrrole], for which the Ki under setting [1] was determined as 0.041 µM.
On to `Cc1cc(O)nc(N2CC3CN(C(=O)c4c(F)cccc4-n4nccn4)CC3C2)n1` (stereo not shown) [Example 281, 2-[5-{[2-Fluoro-6-(2H-1,2,3-triazol-2-yl)phenyl]carbonyl}hexahydropyrrolo[3,4-c]pyrrol-2(1H)-yl]-6-methylpyrimidin-4-ol], for which the Ki under setting [1] was found to be 9 µM.
For `COc1cccc(C(=O)N2CC3CN(c4nc(C)cc(C)n4)CC3C2)c1-n1nccn1` (stereo not shown) [Example 285, 2-(4,6-Dimethylpyrimidin-2-yl)-5-{[3-methoxy-2-(2H-1,2,3-triazol-2-yl)phenyl]carbonyl}octahydropyrrolo[3,4-c]pyrrole], under setting [1], the Ki was 1.5 µM.
On the same count and under the same terms, the same measure for `Cc1nc(N2CC3CN(C(=O)c4c(F)cccc4-n4nccn4)CC3C2)ncc1F` (stereo not shown) [Example 293, 2-(5-Fluoro-4-methylpyrimidin-2-yl)-5-{[2-fluoro-6-(2H-1,2,3-triazol-2-yl)phenyl]carbonyl}octahydropyrrolo[3,4-c]pyrrole]: 0.019 µM; for `Cc1nc(N2CC3CN(C(=O)c4c(F)cccc4-n4nccn4)CC3C2)nc(C)c1C` (stereo not shown) [Example 294, 2-{[2-Fluoro-6-(2H-1,2,3-triazol-2-yl)phenyl]carbonyl}-5-(4,5,6-trimethylpyrimidin-2-yl)octahydropyrrolo[3,4-c]pyrrole]: 0.004 µM; for `Cc1cnc(N2CC3CN(C(=O)c4c(F)cccc4-n4nccn4)CC3C2)nc1C` (stereo not shown) [Example 295, 2-(4,5-Dimethylpyrimidin-2-yl)-5-{[2-fluoro-6-(2H-1,2,3-triazol-2-yl)phenyl]carbonyl}octahydropyrrolo[3,4-c]pyrrole]: 0.024 µM.
Consider `COc1cc(C)nc(N2CC3CN(C(=O)c4c(F)cccc4-n4nccn4)CC3C2)n1` (stereo not shown) [Example 296, 2-{[2-Fluoro-6-(2H-1,2,3-triazol-2-yl)phenyl]carbonyl}-5-(4-methoxy-6-methylpyrimidin-2-yl)octahydropyrrolo[3,4-c]pyrrole], for which, under setting [1], the Ki came to 0.009 µM.
As for `CCc1cc(C)nc(N2CC3CN(C(=O)c4c(F)cccc4-n4nccn4)CC3C2)n1` (stereo not shown) [Example 297, 2-(4-Ethyl-6-methylpyrimidin-2-yl)-5-{[2-fluoro-6-(2H-1,2,3-triazol-2-yl)phenyl]carbonyl}octahydropyrrolo[3,4-c]pyrrole], the Ki under setting [1] stood at 0.006 µM.
On the same count and under the same terms, the same measure for `Cc1cc(C(C)(C)C)nc(N2CC3CN(C(=O)c4c(F)cccc4-n4nccn4)CC3C2)n1` (stereo not shown) [Example 301, 2-(4-tert-Butyl-6-methylpyrimidin-2-yl)-5-{[2-fluoro-6-(2H-1,2,3-triazol-2-yl)phenyl]carbonyl}octahydropyrrolo[3,4-c]pyrrole]: 0.036 µM; for `Cc1cc(C2CC2)nc(N2CC3CN(C(=O)c4c(F)cccc4-n4nccn4)CC3C2)n1` (stereo not shown) [Example 302, 2-(4-Cyclopropyl-6-methylpyrimidin-2-yl)-5-{[2-fluoro-6-(2H-1,2,3-triazol-2-yl)phenyl]carbonyl}octahydropyrrolo[3,4-c]pyrrole]: 0.017 µM.
For the compound `Cc1cc(C)nc(N2CC3CN(C(=O)c4cccc(F)c4-c4nc(C)no4)CC3C2)n1` (stereo not shown) [Example 314, 2-(4,6-Dimethylpyrimidin-2-yl)-5-{[3-fluoro-2-(3-methyl-1,2,4-oxadiazol-5-yl)phenyl]carbonyl}octahydropyrrolo[3,4-c]pyrrole], the Ki was determined as 0.013 µM.
On to `Cc1nc(N2CC3CN(C(=O)c4c(F)cccc4-n4nccn4)CC3C2)ncc1Cl` (stereo not shown) [Example 316, 2-(5-Chloro-4-methylpyrimidin-2-yl)-5-{[2-fluoro-6-(2H-1,2,3-triazol-2-yl)phenyl]carbonyl}octahydropyrrolo[3,4-c]pyrrole], for which the Ki under setting [1] came out at 0.01 µM.
As to `Cc1cc(C)nc(N2CC3CN(C(=O)c4ccc5ccccc5c4-n4nccn4)CC3C2)n1` (stereo not shown) [Example 331, [5-(4,6-Dimethyl-pyrimidin-2-yl)-hexahydro-pyrrolo[3,4-c]pyrrol-2-yl]-(1-[1,2,3]triazol-2-yl-naphthalen-2-yl)-methanone], the Ki under setting [1] is 0.081 µM.
On to `Cc1cc(C)nc(N2CC3CN(C(=O)c4ncccc4-n4nccn4)CC3C2)n1` (stereo not shown) [Example 332, [5-(4,6-Dimethyl-pyrimidin-2-yl)-hexahydro-pyrrolo[3,4-c]pyrrol-2-yl]-(3-[1,2,3]triazol-2-yl-pyridin-2-yl)-methanone], for which the Ki under setting [1] is 0.114 µM.
For `COc1cc(C(=O)N2CC3CN(c4nc(C)cc(C)n4)CC3C2)c(-n2nccn2)cc1OC` (stereo not shown) [Example 342, (4,5-Dimethoxy-2-[1,2,3]triazol-2-yl-phenyl)-[5-(4,6-dimethyl-pyrimidin-2-yl)-hexahydro-pyrrolo[3,4-c]pyrrol-2-yl]-methanone], under setting [1], the Ki was 9.49 µM.
`[2H]c1c(C([2H])([2H])[2H])nc(N2CC3CN(C(=O)c4cccc(F)c4-c4nc(C)no4)CC3C2)nc1C([2H])([2H])[2H]` (stereo not shown) [Example 383, 2-{4,6-Bis[(^2H3)methyl](^2H)pyrimidin-2-yl}-5-{[3-fluoro-2-(3-methyl-1,2,4-oxadiazol-5-yl)phenyl]carbonyl}octahydropyrrolo[3,4-c]pyrrole] registered a Ki of 0.013 µM.

(Values after patent US8653263B2 (Janssen Pharmaceutica, priority 2009, dated 2014).)
